{"source": "patent US20240036032A1", "about": "“PREDICTIVE IN VITRO ASSAY MIMICKING IN VIVO PHARMACOLOGY” (MIMI-Q GMBH, priority 2020, published 2024)", "origin": "cited, not measured here", "test_system": "chemo-resistant metastatic CRC", "details": "absence of genetic selection; cited from earlier work", "data": [{"substance": "cetuximab: anti-EGFR therapy drug", "values": [{"measurement": "patients responding to anti-EGFR therapy", "value": 10, "unit": "%"}]}]}
